Antibody variant affinities, Ab-14 light chain, assay B

The measurements come from Li et al. 2023 (doi:10.1038/s41467-023-39022-2) through the FLAb antibody collection.

Binding partner: SARS-CoV-2 spike HR2 peptide, sequence PDVDLGDISGINAS.

Parent: Ab-14, a human scFv built as VH, three GGGGS repeats, VL. Only the CDRs of the light chain vary.
VH: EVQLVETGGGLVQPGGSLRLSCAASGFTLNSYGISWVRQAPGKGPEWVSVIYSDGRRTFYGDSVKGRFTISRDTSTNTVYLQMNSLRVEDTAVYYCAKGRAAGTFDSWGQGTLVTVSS
VL: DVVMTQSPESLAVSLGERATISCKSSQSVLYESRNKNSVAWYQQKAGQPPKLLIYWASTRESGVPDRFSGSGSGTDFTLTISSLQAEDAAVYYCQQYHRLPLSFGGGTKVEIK

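The parent was found by panning a naive human phage display library on the peptide. These sequences belong to a second round, designed from the earlier measurements on random variants of the parent. Several design methods are mixed in this list. Affinity was read by AlphaSeq, a pooled yeast mating assay with surface-displayed partners. After mating in shaken culture at 30 °C for 16 h, diploids were selected and their barcode pairs sequenced. Scores were corrected for input abundance and mapped to Kd with protein pairs of known affinity run in the same pool. The assay was run in six technical replicates.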

The parent's light chain CDRs are KSSQSVLYESRNKNSVA, WASTRES, QQYHRLPLS; each variant's own CDRs replace them letter for letter. Values are log10 of the apparent Kd in nM; lower means stronger binding. Averages over replicates are reported, and they cover detected replicates only. A pair that was not seen in any replicate is written "nd"; this usually means weak binding, but a binder can also be missed. Values of this round are not directly comparable with the first-round values of the same sequences.

Variant KSSQSVLYESRNKNNVA / WASTRIS / QQYHRMPLS showed 2.41 (1 of 6 replicates; controls 1 of 18).
Variant KSSQSVLYESCNKNSVA / WASTREA / QQYHRLPLS showed 1.93 (3 of 6 replicates; controls 0 of 18).
Variant IVSQLMLIGMHAKNSIA / EAETRIN / QQYHRLPLI showed 3.66 (2 of 6 replicates; controls 0 of 18).
Variant KLDQSAEYGSRNKNSVA / SASTRES / QQYHRLPLS showed 0.76 (6 of 6 replicates; controls 2 of 18).
Variant QLLMATMQETYNRNSVA / HAETRED / QSYHRLPLS showed 0.32 (6 of 6 replicates; controls 3 of 18).
Variant KLQQSNLYESRNKNSVA / GASTRES / QQYHRLPLS showed -0.31 (6 of 6 replicates; controls 2 of 18).
Variant KFSQSVLYESRNKNAVA / DASTRES / QQYHRLPLS showed -0.26 (6 of 6 replicates; controls 0 of 18).
Variant KMWDYEYGTNAMNSAIA / NASLESD / QQYDRLPLT showed nd (0 of 6 replicates; controls 0 of 18).
Variant KSSQSVIYESRNKNSVA / QASTRES / QQYHRLPLS showed 0.51 (6 of 6 replicates; controls 0 of 18).
Variant KSSQSFLYESRNPNSVA / GASTRES / QQYHRLPLS showed -0.29 (6 of 6 replicates; controls 0 of 18).
Variant KFQQSVGYETRNKNSVA / EASQRES / QQYHRLPLS showed -0.04 (6 of 6 replicates; controls 2 of 18).
Variant MIYAANMELGRAANSIA / DNVTRYS / QQYERLPLS showed 2.82 (5 of 6 replicates; controls 1 of 18).
Variant KSSQSVLYESRNKNSVA / AASTRSS / QQHHRLPLS showed 2.31 (6 of 6 replicates; controls 0 of 18).
Variant KIGMVTNGISFSKNSVA / EQSTREN / QQYDRLPLS showed 1.57 (6 of 6 replicates; controls 2 of 18).
Variant KLQQLMLYESRMKNNVA / NASTRGS / QQYHRLPLS showed 0.80 (6 of 6 replicates; controls 1 of 18).
Variant KSSQSVLTESRNKNSVA / WASTRES / QQYHRLPLI showed 2.66 (3 of 6 replicates; controls 1 of 18).
Variant KLQQFYRMESRNKNSVA / DNSTRES / QDYDRLPLS showed 3.04 (1 of 6 replicates; controls 1 of 18).
Variant LLNAEDQGDDRGMNNIA / GGDTKMA / QQYHRLPLS showed 0.11 (6 of 6 replicates; controls 2 of 18).
Variant KLPQGVLYESRNKNSVA / GASTRES / QQYHRLPLS showed -0.46 (6 of 6 replicates; controls 1 of 18).
Variant KSSQSVLYESDNKNSVA / WASTRES / QQYHRLPLS showed 1.20 (6 of 6 replicates; controls 0 of 18).
Variant KIGMTLNFLEHKQNNVA / DLVTREN / QQYHRLPLS showed 1.20 (6 of 6 replicates; controls 0 of 18).
Variant IFSQSVLMGNLMKNSVA / QASTRFS / QQYHRLPLI showed 1.32 (6 of 6 replicates; controls 1 of 18).
Variant QLSGPMMMESKNKNSVA / EFSTRGS / QQYHRLPLS showed 1.89 (5 of 6 replicates; controls 0 of 18).
Variant KLSQSWLYESRNKNSVA / NASTRLD / QQYHRLPLS showed -0.18 (6 of 6 replicates; controls 0 of 18).
Variant KLLQSQLYESRNKNSVA / NASQRES / QQYHRLPLS showed -0.40 (6 of 6 replicates; controls 1 of 18).
Variant KLSQSVLYESRNKNSVA / WASTRES / QQYHRPPLS showed 0.09 (6 of 6 replicates; controls 1 of 18).
Variant KISQMTRVGSTHGNSIA / EETTRAK / QQYHRLPLF showed 2.15 (5 of 6 replicates; controls 0 of 18).
Variant KIQQSVLYESLNQNSVA / NASTRLS / QQYHRLPLS showed 0.54 (6 of 6 replicates; controls 2 of 18).
Variant KSSQSWLYESRNKNSVA / GASMRES / QQYHRLPLM showed -0.13 (6 of 6 replicates; controls 1 of 18).
Variant KLSQADWYESRNKNSVA / EASLREQ / QQYHRLPLS showed -0.01 (6 of 6 replicates; controls 0 of 18).
Variant QFARAMYHGLNDNQNIA / DAMTYIK / QQYSRLPLF showed nd (0 of 6 replicates; controls 0 of 18).
Variant KSQQGVLYESRNKNSVA / GASTRES / QQYHRLPLH showed 0.46 (6 of 6 replicates; controls 0 of 18).

The authors averaged sequences with at least three values out of six and counted those with two or fewer as poor binders. The parent sequence was in this pool as ten entries: three were never detected, three once, and four in most replicates, with averages from 0.34 to 2.37. Background: pairings of all light chain designs with three empty control strains gave a value in 4% of cases (median 2.64, 5th percentile 1.59). Values in that range, when seen in few replicates, are hard to tell from nonspecific mating. The control count says in how many pairings with the empty strains this scFv gave a signal.